Target: c-KIT (Homo sapiens, UniProt P10721)
Assay: cKIT inhibition assay (electrophoretic mobility shift)
Type: biochemical
Design: purchased Millipore 14-559
Settings: read-out: % Inhibition of c-KIT

Amino acid sequences for entries named in this document (tags omitted). Residues count along the entry.
UniProt P10721, 26-976: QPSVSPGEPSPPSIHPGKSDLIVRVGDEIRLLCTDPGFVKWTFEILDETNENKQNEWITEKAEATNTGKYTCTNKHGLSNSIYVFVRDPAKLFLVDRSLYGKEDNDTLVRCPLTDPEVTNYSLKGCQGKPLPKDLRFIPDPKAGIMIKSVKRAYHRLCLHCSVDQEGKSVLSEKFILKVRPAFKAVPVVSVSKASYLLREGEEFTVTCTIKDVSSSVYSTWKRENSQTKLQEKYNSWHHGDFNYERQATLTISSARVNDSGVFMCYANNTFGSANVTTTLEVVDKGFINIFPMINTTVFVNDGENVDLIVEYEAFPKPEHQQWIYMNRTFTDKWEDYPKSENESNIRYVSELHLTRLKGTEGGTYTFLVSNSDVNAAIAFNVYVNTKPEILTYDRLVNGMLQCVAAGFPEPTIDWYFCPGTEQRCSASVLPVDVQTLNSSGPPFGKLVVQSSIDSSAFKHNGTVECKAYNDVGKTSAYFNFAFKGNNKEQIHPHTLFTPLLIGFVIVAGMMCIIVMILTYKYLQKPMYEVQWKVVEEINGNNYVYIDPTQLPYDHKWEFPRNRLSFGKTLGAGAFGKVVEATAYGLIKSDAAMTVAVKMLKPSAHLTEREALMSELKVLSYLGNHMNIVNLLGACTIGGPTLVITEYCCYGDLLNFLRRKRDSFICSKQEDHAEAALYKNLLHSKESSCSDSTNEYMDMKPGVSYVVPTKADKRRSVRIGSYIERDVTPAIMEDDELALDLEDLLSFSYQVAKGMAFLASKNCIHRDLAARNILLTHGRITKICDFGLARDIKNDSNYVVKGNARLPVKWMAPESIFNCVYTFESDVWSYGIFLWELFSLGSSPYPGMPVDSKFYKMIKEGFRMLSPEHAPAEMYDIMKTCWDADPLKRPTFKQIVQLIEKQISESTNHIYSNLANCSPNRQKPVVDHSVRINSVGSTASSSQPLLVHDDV

C=CC(=O)Nc1ccc(C(=O)Nc2ccc(C)c(Nc3nccc(-c4cccnc4)n3)c2)cc1C(F)(F)F [Compound 2, 4-Acrylamido-N-(4-methyl-3-(4-pyridin-3-yl)pyrimidin-2-ylamino)phenyl-3-(trifluoromethyl)benzamide]
inhibition at 1 µM: 88%
